These results are taken from patent US10106757B2, “Ionic liquid, lubricant, and magnetic recording medium” (DEXERIALS CORPORATION, priority 2016, dated 2018).

A short description of data set [1]: Solubility test in hydrocarbon-based solvent n-hexane. To be noted: 25° C., 0.5 parts by mass added to 100 parts, ultrasonic 5 minutes, left 1 day, visually observed. The method, then: (§1) To a predetermined amount of Vertrel XF or n-hexane, the ionic liquid, Z-DOL, or Z-TETRAOL was added. Ultrasonic waves were applied to the resultant mixture for 5 minutes, followed by leaving the mixture to stand for 1 day. The solubility was visually observed.
In case of n-hexane, similarly, 0.5 parts by mass of the ionic liquid, Z-DOL, or Z-TETRAOL was added to 100 parts by mass of n-hexane at 25° C. After applying ultrasonic waves to the resultant for 5 minutes, the resultant was left to stand for 1 day. Thereafter, the solubility was visually observed and evaluated based on the following evaluation criteria.
[Evaluation Criteria (Hydrocarbon-Based Solvent)]
• 0.5% by mass or greater:
Soluble with addition of 0.5 parts by mass • Less than 0.5% by mass:
Insoluble with addition of 0.5 parts by mass
(§2) Note that, the solubility was visually observed, and it was judged as soluble when it was transparent. Moreover, it was judged as not soluble (insoluble) when it was opaque or insoluble components were observed.

A short description of data set [2]: Solubility test in fluorine-based solvent Vertrel XF. The note with it: 25° C., 0.2 parts by mass added to 100 parts, ultrasonic 5 minutes, left 1 day, visually observed. The method, then: as §1
Specifically, 0.2 parts by mass of the ionic liquid, Z-DOL, or Z-TETRAOL was added to 100 parts by mass of Vertrel XF (25° C.). After applying ultrasonic waves to the resultant for 5 minutes, the resultant was left to stand for 1 day. Thereafter, the solubility was visually observed and evaluated based on the following evaluation criteria.
[Evaluation Criteria (Fluorine-Based Solvent)]
• 0.2% by mass or greater:
Soluble with addition of 0.2 parts by mass • Less than 0.2% by mass:
Insoluble with addition of 0.2 parts by mass
as §2

In the case of “nonafluorobutanesulfonic acid-1,3-didodecyl-2-undecylimidazolium [Ex. 1A]”, the Solubility n-hexane in data set [1] is reported as at least 0.5% by mass; in data set [1] (listed as Example 1A) it was at least 0.5 % by mass. Further, the “Solubility Vertrel XF” value is at least 0.2% by mass in data set [2] and at least 0.2 % by mass in data set [2] (listed as Example 1A).

Regarding “nonafluorobutanesulfonic acid-1,3-dioctadecyl-2-heptadecylimidazolium [Ex. 3A]”, the Solubility n-hexane in data set [1] was at least 0.5% by mass; in data set [1] (listed as Example 3A) it was at least 0.5 % by mass. Besides, the entries for the “Solubility Vertrel XF” value in data set [2] and in data set [2] (listed as Example 3A) were below 0.2% by mass and “less than 0.2 % by mass”, respectively.

In turn, “nonafluorobutanesulfonic acid-1-octadecylimidazolium [Comp. Ex. 1A, reference compound]” gave a Solubility n-hexane in data set [1] below 0.5% by mass. The “Solubility Vertrel XF” value in data set [2] is below 0.2% by mass.

As to “pentadecafluorooctanoic acid octadecyl ammonium salt [Comp. Ex. 4A, reference compound]”, the Solubility n-hexane in data set [1] is on record as below 0.5% by mass. Moreover, in data set [2], the “Solubility Vertrel XF” value is on record as below 0.2% by mass.
